Values of other authors in patent US20100003309A1.

CCC(=O)N(c1ccccc1)C1CCN(CCc2ccccc2)CC1
remaining fraction dissolved in saliva and digested, slower digestive absorption (Fentanyl preparations for oral administration): 75%
absorption by the transmucosal route (Fentanyl preparations for oral administration, transmucosal route): 25%
time of transmucosal absorption (time in which the 25 percent is absorbed by the transmucosal route): less than 5 minutes

This is a selection: effects in other tests are not listed, and their absence says nothing.
